Literature values in patent US20020136817A1, “Use of germ flour of certain fruits for the manufacture of food products useful for the treatment of phytate deficiency states” (priority 1999, published 2002).

Details: doses at which maximum excretions are produced; cited from earlier work

O=P(O)(O)O[C@H]1[C@H](OP(=O)(O)O)[C@@H](OP(=O)(O)O)[C@H](OP(=O)(O)O)[C@@H](OP(=O)(O)O)[C@H]1OP(=O)(O)O [phytate, inositol hexaphosphate]
effect on bioavailability of oligoelements such as Zn(II) and Fe(III): do not affect the bioavailability
